# Assay outcomes: PubChem BioAssay, National Center for Advancing Translational Sciences (NCATS)
# Nrf2 inh – inhibitors of Nrf2 signaling | Potency, µM (top dose mostly 46 µM), hits mostly inhibitors | AID 504444 | actives 2.1% (n = 360,000) | A549 ARE-Fluc reporter, luciferase luminescence, 18-24 h; also: nearly all actives have a fitted effect of over 60% in size
#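 Reporter: ARE-Fluc in A549. Exposure: 18-24 h, 37 °C, 5% CO2, 5% FBS OPTI-MEM. Readouts: fluorescent cytotoxicity (CellTiter-Fluor), then luminescent Nrf2 signal after BugLite.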
# A549 tox-1 – A549 cytotoxicity, counter-screen for Nrf2 inhibitors; Potency, µM (series often up to 46 µM), actives largely listed as inhibitors; actives 0.16% (n = 390,000); A549 ARE-Fluc cells, CellTiter-Fluor viability, 18-24 h
#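 A549 ARE_Fluc cells in 5% FBS OPTI-MEM were exposed to compounds in concentration-response for 18-24 h at 37 deg C. Viability was read by CellTiter-Fluor fluorescence (Ex 405/Em 525) after 30 min, before the luciferase read.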
# miR-21 FLuc – miR-21 reporter, rising signal | HeLa miR-21 FLuc reporter, luciferase, 48 h | Potency, µM (top dose mostly 38.3 µM) | 340,000 tested, under 10 active | AID 2288; active = well fitted rising curve with a large enough effect; inconclusive = small, poorly fitted or top-dose-only effect; inactive = no such curve, though single readings can be large or run the other way;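 further: miR-21 action dims this reporter so a rising signal means less miR-21 action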
#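 HeLa cells stably expressing CMV-driven firefly luciferase with a downstream miR-21 binding sequence, endogenously expressing miR-21, were treated with titrations (up to about 40uM final) for 48 hours at 37 degree Celsius. Luciferase luminescence was read after lysis.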
# GALK inhibitor – inhibitors of human galactokinase; P51570; Purified GALK, Kinase-Glo residual ATP luminescence; Potency, µM (series often up to 57.5 µM), most hits filed as inhibitors; actives 0.007% (n = 270,000)
#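 Quantitative HTS: GALK 5 nM, ATP 35 uM, galactose 100 uM, 1 h room temperature, then luciferase-based ATP detection.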
# Nrf2 ARE act – activators of Nrf2 (ARE) signaling | actives 0.31% (n = 410,000) | Potency, µM (top dose mostly 46.1 µM), actives largely listed as activators | AREc32 ARE-luciferase reporter (MCF7-derived line), luminescence, 24 h; also: nearly all actives have a fitted effect of over 65% in size
#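 Luminescent ARE reporter assay in AREc32_Fluc cells: overnight plating at 37 deg C, 24 hr compound incubation, Steady-Glo added, 30 min RT before reading.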
# PI4K2A inh – PI4K2A (human) kinase inhibition. Q9BTU6. purified PI4K2A, ADP-Glo luminescence, 1 h; active compounds read low. AID 1346378. actives 0.13% (n = 420,000). activity change, negative = inhibition, % at 76.9 µM; in the data active = activity change below about -50%; inconclusive = mostly about -30% to -49%
#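 In this quantitative HTS, ADP production by PI4K2A was quantified luminescently after 1 h at ambient temperature; 100 microM adenosine served as plate-quality control.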
# FLuc counter 3 – firefly luciferase inhibition, Nrf2 hit validation; purified firefly luciferase, luminescence inhibition; Potency, µM (series often up to 57.5 µM), usual class: inhibitors; shares compounds with Nrf2 inh; actives 4% (n = 1,400); also: nearly all actives have a fitted effect of over 65% in size
# A549 tox-2 – toxic to A549 ARE-Fluc cells in Nrf2 counterscreen; Potency, µM (series often up to 46.1 µM), usual class: inhibitors; actives 2% (n = 1,400); shares compounds with Nrf2 inh; A549 ARE-Fluc cells, cytotoxicity counterscreen; AID 720523;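 also: cells exposed to compounds for 18 to 24 hours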
# ARE-Fluc inh – confirmation of Nrf2 inhibitors in A549 ARE reporter cells. actives 74% (n = 1,400). A549 ARE-firefly luciferase reporter, luminescence. AID 720524. Potency, µM (highest dose often 46.1 µM), hits mostly inhibitors. shares compounds with Nrf2 inh; also: nearly all actives have a fitted effect of over 65% in size
# A number is an active result; . = inactive; ? = inconclusive; / = no result shown. Hits are enriched below; roughly 2.2% of the tested compounds scored in any of these assays. Unless noted, calls follow the shape of the dose curve; as a rule, active = well fitted curve in the direction sought with a large enough effect; inconclusive = small, poorly fitted or top-dose-only effect, or another doubt; inactive = no such curve, though single readings can be large; an effect the other way counts as inactive or inconclusive.
SMILES,Nrf2 inh,A549 tox-1,miR-21 FLuc,GALK inhibitor,Nrf2 ARE act,PI4K2A inh,FLuc counter 3,A549 tox-2,ARE-Fluc inh
CC(C)Oc1ccc(S(=O)(=O)N2CCCCCC2)c2ccccc12,/,/,/,/,/,.,/,/,/
CN1CCc2c(OCC(=O)N3CCCc4ccccc43)cccc2C1=O,9.2µM,?,.,.,.,.,.,.,?
O=C1c2cccc(OCC(=O)N3CCCc4ccccc43)c2CCN1Cc1ccc(F)cc1,.,.,.,.,.,.,/,/,/
O=C(NCc1nnc(SCC(=O)N2CCCc3ccccc32)n1-c1ccccc1)c1cccc2ccccc12,2.6µM,.,.,.,.,.,.,.,10µM
COc1ccc(CCNC(=O)c2cnn(-c3ccccc3)c2N)cc1OC,/,/,/,/,/,.,/,/,/
CCCCCCCn1c2c(c(=N)c3c1CCC3)CCCC2,0.52µM,?,?,.,.,.,.,.,1.8µM
CCCCCCCCCn1c2c(c(=N)c3c1CCC3)CCC2,?,.,?,.,.,.,/,/,/
CCCCn1c2c(c(=N)c3c1CCC3)CCC2,2.6µM,.,?,.,.,.,.,.,6.5µM
CSc1cccc(NS(=O)(=O)c2ccc(C(C)=O)cc2)c1,4.6µM,.,.,.,.,.,.,.,/
CC(=O)c1cccc(NC(=O)N2CCCCCC2)c1,.,.,.,.,.,.,/,/,/
CC(=O)c1cccc(NS(=O)(=O)c2ccc(NC(=O)N3CCCCC3)cc2)c1,8.2µM,.,.,.,.,.,.,.,15µM
Cc1ccc(OC(C)C(=O)Nc2ccncc2)cc1C (stereo unspecified),?,.,.,.,.,.,/,/,/
CC(Oc1ccc(Br)cc1)C(=O)Nc1ccncc1 (stereo unspecified),8.2µM,.,.,.,.,.,.,.,/
COc1ccc(-c2csc(NC(=O)c3ccccc3NS(=O)(=O)c3ccc(F)c(F)c3)n2)cc1,2.9µM,?,?,?,.,.,?,?,4.1µM
CN(CCOC(=O)c1occ2ccccc12)C1CN(Cc2cn(Cc3ccccc3Cl)nn2)S(=O)(=O)C1 (stereo unspecified),/,/,/,/,/,.,/,/,/
CN(c1ccccc1)c1nc(C#N)nc(N2CCOCC2)n1,8.2µM,.,/,/,/,/,.,.,?
CN1c2ccc(C#CC3CC3)cc2[C@@H]2[C@@H](CCN2C(=O)C2CCOCC2)[C@H]1CO,/,/,/,/,/,.,/,/,/
Cc1c(C(=O)Nc2ccc3c(c2)OCCO3)sc2nc(-c3ccccc3)cn12,6.5µM,?,?,.,.,.,?,.,21µM
CC(C)C1N=C(NC(=O)OCc2ccccc2)NC1=O (stereo unspecified) (tested in a mixture with another compound),/,/,/,/,/,.,/,/,/
Cc1ccccc1OCCn1c(C)nc2ccccc21,8.2µM,.,.,.,.,.,.,.,?
O=C(c1cncnc1)N1CCC(n2nnc3ncccc32)CC1,/,/,/,/,/,.,/,/,/
O=C(OCC#CCSc1nnc(-c2cccc3ccccc23)o1)c1ccc(Cl)c(C(F)(F)F)c1,.,.,/,/,/,.,/,/,/
COc1ccc(/C=C/C(=O)Nc2c(C)nn(C)c2C)cc1COc1ccc(Cl)cc1Br,?,.,.,.,.,.,/,/,/
Cc1nn(C)c(C)c1NC(=O)COc1ccc(Cl)cc1Br,8.2µM,.,/,/,.,.,.,.,7.3µM
COc1ccc(OC)c(S(=O)(=O)N2CCC(C(=O)N3CCN(C4CCCCC4)CC3)CC2)c1,/,/,/,/,/,.,/,/,/
SMILES,Nrf2 inh,A549 tox-1,miR-21 FLuc,GALK inhibitor,Nrf2 ARE act,PI4K2A inh,FLuc counter 3,A549 tox-2,ARE-Fluc inh
CC(NNC(=S)N1CCN(c2ccccn2)CC1)c1nccc2ccccc12 (stereo unspecified),5.8µM,?,/,/,.,.,.,?,?
C/C(=N/NC(=O)c1cccnc1)c1cccc(O)c1,/,/,/,/,/,.,/,/,/
CCCCCN1CCCCC(NC(=O)c2ccc(F)c(F)c2)C1=O (stereo unspecified),/,/,/,/,/,.,/,/,/
O=C(COc1ccc2c(-c3ccccc3)cc(=O)oc2c1)Nc1cccnc1,2.3µM,.,.,.,.,.,.,.,1.8µM
CN(CCc1ccccc1)C(=O)c1ccc(NC(=O)Cc2ccc(NC(=O)C3CCCN(C(=O)CCc4ccccc4)C3)cc2)cc1 (stereo unspecified),1.3µM,.,/,/,.,.,.,.,4.1µM
CN(CCc1ccccc1)C(=O)c1ccc(NC(=O)Cc2ccc(NC(=O)C3CCCN(C(=O)C4CCC4)C3)cc2)cc1 (stereo unspecified),?,.,/,/,.,.,/,/,/
Cc1cc(C)n(S(=O)(=O)/C=C/c2ccccc2)n1,9.2µM,?,?,.,3.2µM,.,.,.,.
N=c1ccn(Cc2ccc(Cl)cc2)cc1,/,?,?,.,.,.,/,/,/
CCCCCCCCCn1ccc(=N)cc1,3.3µM,?,?,.,.,.,.,.,8.2µM
CCCCCCCn1ccc(=N)cc1,2.9µM,.,?,.,.,.,.,.,6.5µM
CCCCCCN1CC(O)=C(c2ccccc2)C1=N,/,.,.,.,.,.,/,/,/
CCn1ccc(=N)cc1,/,.,.,.,.,.,/,/,/
CCCCCn1ccc(=N)cc1,0.92µM,?,.,.,.,.,.,.,1.6µM
CCOC(=O)[C@@]12CN(C(=O)OC(C)(C)C)CC=C1N(Cc1ccc(OC)cc1)C(=O)[C@H]2CC(=O)NCc1ccc(C)o1,/,/,/,/,/,.,/,/,/
Cc1ccc(C(=O)Oc2coc(CSc3nnc(NC(=O)c4cccs4)s3)cc2=O)cc1,6.5µM,.,.,.,.,.,?,.,4.6µM
CC(=O)Nc1nnc(SCc2cc(=O)c(OC(=O)c3ccccc3)co2)s1,.,.,.,.,.,.,/,/,/
O=C(NC(=S)Nc1ccc(Cc2ccncc2)cc1)c1ccc(F)cc1,5.8µM,.,.,.,.,.,.,.,?
CC(=O)Oc1ccc2cc(-c3nc4c(s3)CCc3ccccc3-4)c(=O)oc2c1,.,?,/,/,/,/,/,/,/
COc1ccc(OC)c(CCNC(=O)C(C)n2nc(C)c3c(C)n(-c4ccccc4)nc3c2=O)c1 (stereo unspecified),.,.,.,.,.,.,/,/,/
COc1ccc(OC)c(CCNC(=O)C(C)n2nc(C)c3c(C)n(-c4ccc(C)cc4)nc3c2=O)c1 (stereo unspecified),6.5µM,?,?,.,.,.,.,?,3.7µM
